The target of the assay is Amine oxidase [flavin-containing] A (Homo sapiens, UniProt P21397). In words: Competitive inhibition of recombinant human MAO-A using kynuramine as substrate by Lineweaver-Burk plot analysis.

The chains behind the UniProt entries cited, without tags or fusion partners.
UniProt P21397, whole entry: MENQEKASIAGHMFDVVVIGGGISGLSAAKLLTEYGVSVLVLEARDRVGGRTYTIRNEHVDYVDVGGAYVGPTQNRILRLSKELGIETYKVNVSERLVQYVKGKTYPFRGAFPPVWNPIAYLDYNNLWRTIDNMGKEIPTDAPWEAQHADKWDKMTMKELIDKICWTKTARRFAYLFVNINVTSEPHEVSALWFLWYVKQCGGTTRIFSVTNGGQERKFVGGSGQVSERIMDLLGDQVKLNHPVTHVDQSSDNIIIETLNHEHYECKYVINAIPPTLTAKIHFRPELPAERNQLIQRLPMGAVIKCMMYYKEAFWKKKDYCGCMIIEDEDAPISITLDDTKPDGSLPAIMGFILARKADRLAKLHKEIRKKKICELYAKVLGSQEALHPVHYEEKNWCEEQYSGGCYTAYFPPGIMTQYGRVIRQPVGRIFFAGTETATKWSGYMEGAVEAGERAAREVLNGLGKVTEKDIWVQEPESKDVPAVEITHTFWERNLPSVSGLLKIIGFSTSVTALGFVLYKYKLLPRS

Consider `c1ccc2c(c1)[nH]c1cnccc12` [NORHARMANE], for which the Ki came to 260 nM.

A word on the Ki: it is a dissociation constant, usually derived from enzyme kinetics or from competition with a known ligand.

Values taken from ChEMBL document CHEMBL4118277, “Selective inhibition of monoamine oxidase A by chelerythrine, an isoquinoline alkaloid” (Bioorg Med Chem Lett, 2018).
